Target: Adenosine receptor A1 (Rattus norvegicus, UniProt P25099)
Experiment: Binding affinity against adenosine A1 receptor in rat cortex by using [3H]- PIA as a radioligand
Type: tissue-based

Chains of the proteins cited; added tags and fusions are not shown.
UniProt P25099, whole entry: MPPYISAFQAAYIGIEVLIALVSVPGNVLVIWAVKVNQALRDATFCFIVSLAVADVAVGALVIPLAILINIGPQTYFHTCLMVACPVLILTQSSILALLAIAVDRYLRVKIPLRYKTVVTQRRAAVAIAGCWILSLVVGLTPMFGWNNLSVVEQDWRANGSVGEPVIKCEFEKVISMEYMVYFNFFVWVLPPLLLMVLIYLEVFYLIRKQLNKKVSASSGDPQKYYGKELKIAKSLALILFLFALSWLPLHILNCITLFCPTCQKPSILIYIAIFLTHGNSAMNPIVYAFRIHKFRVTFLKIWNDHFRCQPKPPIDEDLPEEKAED

For Nc1ncnc2c1ncn2C1CCCO1 (stereo unspecified), the Ki was 28 µM.
